Measurements as given in patent US12440576B2, “Antibody drug conjugates comprising sting agonists” (Mersana Therapeutics, Inc., priority 2020, dated 2025).

Test system: STING knock out (sg #3-2) SKBR3 cells
Assay: PBMC killing assay, STING knock out SKBR3 NucRed cells (Examples 30, 30A)
Type: cell-based, human
Settings: 100, 25, 5 and 1 nM payload

Q: For CCn1nc(C)cc1C(=O)Nc1nc2cc(C(N)=O)cc(OC)c2n1C/C=C/Cn1c(NC(=O)c2cc(C)nn2CC)nc2cc(C(N)=O)cc(OCCCO)c21 [Compound 1], which “killing of SKBR3 cells/PBMC co-cultures (FIG. 3B)” value is on record?
A: Its value is “no activity”.
